Target: T1, Peroxisome proliferator-activated receptor alpha (Homo sapiens, UniProt Q07869)
T1 sequence (Q07869 whole entry): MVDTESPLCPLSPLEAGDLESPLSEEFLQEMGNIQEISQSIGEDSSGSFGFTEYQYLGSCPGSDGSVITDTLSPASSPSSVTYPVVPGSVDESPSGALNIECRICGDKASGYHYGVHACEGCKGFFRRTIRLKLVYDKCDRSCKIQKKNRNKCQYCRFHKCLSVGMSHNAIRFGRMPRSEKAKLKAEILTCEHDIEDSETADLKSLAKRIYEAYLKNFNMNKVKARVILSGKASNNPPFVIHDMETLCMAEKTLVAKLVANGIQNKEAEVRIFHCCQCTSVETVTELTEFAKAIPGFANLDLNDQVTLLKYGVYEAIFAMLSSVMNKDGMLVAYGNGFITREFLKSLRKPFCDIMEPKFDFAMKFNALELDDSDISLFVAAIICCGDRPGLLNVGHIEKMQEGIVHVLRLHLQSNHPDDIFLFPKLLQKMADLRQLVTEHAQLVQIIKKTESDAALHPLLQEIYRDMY
Assay: Transactivation of human Gal4-fused PPARalpha LBD expressed in African green monkey COS7 cells after 24 hrs by luciferase reporter gene assay
Assay type: cell-based

Cc1oc(-c2ccccc2)nc1CCOc1ccc(C[C@H](Nc2ccccc2C(=O)c2ccccc2)C(=O)O)cc1 [FARGLITAZAR]
EC50: 122 nM

Reference: ChEMBL document CHEMBL4138119, “Anti-diabetic activity of fused PPARγ-SIRT1 ligands with limited body-weight gain by mimicking calorie restriction and decreasing SGK1 expression” (Eur J Med Chem, 2017)
